Measured values reported in PubChem BioAssay (Tox21).
Where “and” joins values, the source holds several entries; their conditions need not be identical. Equal entries are not always repeated. The list shows a part of the results, in another mix than the full data. Records with an inconclusive call do not appear. Calls of active or inactive are those of the source. Unless noted, the call rests on the fitted dose curve; in most records, active means well fitted curve in the direction sought with a large enough effect in the repeat runs; inconclusive means weak or mixed curves; inactive means no such curve, though single readings can be large; an effect the other way counts as inactive or inconclusive.

Assays:
[1] = qHTS assay for small molecules that induce genotoxicity in human embryonic kidney cells expressing luciferase-tagged ATAD5 (AID 651632); conditions: HEK293T ATAD5-luciferase induction, 16 h; series mostly up to 83.3 µM; further: nearly all actives have a fitted effect of over 15% in size
Summary of the method: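 Cells were seeded at 2,000 per well, dosed with compound, and incubated 16 hr at 37C in 5% CO2. Luciferase activity was then quantified after a 30 min room-temperature incubation with Amplite.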

[2] = qHTS assay for small molecule agonists of the p53 signaling pathway - cell viability (AID 651633; calls by dose curve; further: nearly all actives have a fitted effect of over 30% in size); conditions: p53RE-bla HCT-116 viability, ATP luminescence, 16 h
Summary of the method: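 Viability counter-read: CellTiter-Glo luminescence (30 min, room temperature) in the same p53RE-bla plates. These plates had been exposed to compounds for 16 h at 37 C.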

[3] = qHTS assay for small molecules that induce genotoxicity in human embryonic kidney cells expressing luciferase-tagged ATAD5 - cell viability (AID 651634; calls by dose curve; further: nearly all actives have a fitted effect of over 25% in size); conditions: HEK293T ATAD5-luc cells viability, CellTiter-Fluor, 15.5 h
Summary of the method: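 Cells (HEK293T, luciferase-tagged ATAD5) are seeded at 2,000 per well, dosed with compound or DMSO vehicle, and incubated 15.5 hr at 37C and 5% CO2. CellTiter-Fluor is added for 30 min before fluorescence is measured.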

[4] = qHTS assay for small molecule disruptors of the mitochondrial membrane potential (AID 720635); conditions: HepG2 mitochondrial membrane potential, Mito-MPS dye ratio; series mostly up to 83.2 µM; further: potency means the concentration at half of the fitted maximal effect
Summary of the method: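 Mitochondrial membrane potential tracked with Mito-MPS dye, red aggregates (ex 540/em 590 nm) against green monomers (ex 490/em 535 nm). Compound treatment 1 hr at 37C, dye 30 min in HepG2.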

[5] = qHTS assay to test for compound auto fluorescence at 590 nm (red) in HepG2 cells (AID 720674); conditions: HepG2 autofluorescence, red 540/590 nm, 1 h
Summary of the method: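 1 hr compound incubation on HepG2 cells, 37 C, 5% CO2; plate read ex 540 nm / em 590 nm; intensities reported as Rose Bengal sodium equivalents.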

[6] = qHTS assay to test for compound auto fluorescence at 535 nm (green) in HepG2 cells (AID 720675); conditions: green autofluorescence 485/535 nm, 1 h
[7] = qHTS assay to test for compound auto fluorescence at 460 nm (blue) in HEK293 cells (AID 720678); conditions: blue autofluorescence 405/460 nm
Summary of the method: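 Measured: blue fluorescence (Ex 405/Em 460 nm) of compound-treated HEK293 cells, incubated overnight at 37C with 5% CO2 and scaled to triamterene equivalents.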

[8] = qHTS assay to test for compound auto fluorescence at 535 nm (green) in HEK293 cells (AID 720680); conditions: green autofluorescence 485/535 nm
[9] = qHTS assay to test for compound auto fluorescence at 460 nm (blue) in HEK293 cell free culture (AID 720681); conditions: cell-free medium, autofluorescence 405/460 nm (blue)
Summary of the method: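 Blue fluorescence (Ex 405/Em 460 nm, triamterene-equivalent) was read immediately after pin transfer of compound or DMSO into medium (DMEM, 10% FBS) without cells.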

[10] = qHTS assay for small molecule agonists of the p53 signaling pathway (AID 651631; calls by dose curve; further: nearly all actives have a fitted effect of over 15% in size); conditions: HCT-116 p53RE-bla reporter, beta-lactamase FRET ratio, 16 h
Summary of the method: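 Beta-lactamase reporter activity under p53 response elements was quantified in HCT-116 cells by FRET fluorescence, following 16 h incubation with test compounds at 37 °C and 2 h substrate development at room temperature.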
On the % scale 0 is the no-effect control and ±100 the full control effect.

CN(C)CCS
inactive: Potency [1] | activity change, negative = cytotoxicity ([2]; at 83.3 µM (top of the series)) 9.42% | activity, negative = cytotoxicity ([3]; at 83.3 µM (top of the series)) 7.5% | Potency [4] | fluorescence, relative to Rose Bengal ([5]; at 46 µM (top of the series)) -0.756% | fluorescence, % of fluorescein control ([6]; at 46 µM (top of the series)) -0.195% | fluorescence, % of triamterene ([7]; at 46 µM (top of the series)) 0.0518% | fluorescence, % of fluorescein ([8]; at 46 µM (top of the series)) 0.148% | fluorescence, % of fluorescent control ([9]; at 46 µM (top of the series)) -0.0631%

O=[N+]([O-])c1cccc([N+](=O)[O-])c1
inactive: Potency [1] | activity change, negative = cytotoxicity ([2]; at 83.3 µM (top of the series)) -11.1% | activity change, negative = cytotoxicity ([2]; at 95.3 µM (top of the series)) -23.1% | activity, negative = cytotoxicity ([3]; at 83.3 µM (top of the series)) 2.34% | activity, negative = cytotoxicity ([3]; at 95.3 µM (top of the series)) 21.8% | fluorescence, relative to Rose Bengal ([5]; at 46 µM (top of the series)) 0.927% | fluorescence, relative to Rose Bengal ([5]; at 91.3 µM (top of the series)) 0.314% | fluorescence, % of fluorescein control ([6]; at 46 µM (top of the series)) -0.195% | fluorescence, % of fluorescein control ([6]; at 95.7 µM (top of the series)) -0.21% | fluorescence, % of triamterene ([7]; at 46 µM (top of the series)) -0.335% | fluorescence, % of triamterene ([7]; at 95.7 µM (top of the series)) -0.418% | fluorescence, % of fluorescein ([8]; at 46 µM (top of the series)) -0.068% | fluorescence, % of fluorescein ([8]; at 91.3 µM (top of the series)) 0.136% | fluorescence, % of fluorescent control ([9]; at 46 µM (top of the series)) -0.054% | fluorescence, % of fluorescent control ([9]; at 95.7 µM (top of the series)) -0.458%

COP(=S)(Cl)OC
inactive: Potency [4]

Cc1cccc([N+](=O)[O-])c1[N+](=O)[O-]
active: Potency [4] 4.58 µM
inactive: Potency [1] | activity change, negative = cytotoxicity ([2]; at 83.3 µM (top of the series)) -2.51% | activity, negative = cytotoxicity ([3]; at 83.3 µM (top of the series)) 16.3% | fluorescence, relative to Rose Bengal ([5]; at 91.3 µM (top of the series)) 0.374% | fluorescence, % of fluorescein control ([6]; at 91.3 µM (top of the series)) 0.118% | fluorescence, % of triamterene ([7]; at 91.3 µM (top of the series)) -0.378% | fluorescence, % of fluorescein ([8]; at 91.3 µM (top of the series)) -0.202% | fluorescence, % of fluorescent control ([9]; at 91.3 µM (top of the series)) -0.325%

CC(C)OP(C)(=O)OC(C)C
inactive: activation ([10]; at 73.3 µM (top of the series)) -0.98% and -8.17% | Potency [1] | activity change, negative = cytotoxicity ([2]; at 83.3 µM (top of the series)) 11% and 8.52% | activity, negative = cytotoxicity ([3]; at 83.3 µM (top of the series)) 13.8% and 11.2% | fluorescence, relative to Rose Bengal ([5]; at 91.3 µM (top of the series)) -0.2% and -0.0996% | fluorescence, % of fluorescein control ([6]; at 91.3 µM (top of the series)) 0.0412% and -0.003% | fluorescence, % of triamterene ([7]; at 91.3 µM (top of the series)) 0.0048% and -0.14% | fluorescence, % of fluorescein ([8]; at 91.3 µM (top of the series)) -0.0774% and -0.0198% | fluorescence, % of fluorescent control ([9]; at 91.3 µM (top of the series)) -0.185% and -0.168%

COP(C)(=O)OC
inactive: activation ([10]; at 73.3 µM (top of the series)) -1.69% | activation ([10]; at 95.1 µM (top of the series)) 1.34% | Potency [1] | activity change, negative = cytotoxicity ([2]; at 83.3 µM (top of the series)) 13% | activity change, negative = cytotoxicity ([2]; at 95.3 µM (top of the series)) -14.3% | activity, negative = cytotoxicity ([3]; at 83.3 µM (top of the series)) -2.04% | activity, negative = cytotoxicity ([3]; at 95.3 µM (top of the series)) 25.1% | Potency [4] | fluorescence, relative to Rose Bengal ([5]; at 91.3 µM (top of the series)) 0.264% | fluorescence, relative to Rose Bengal ([5]; at 95.7 µM (top of the series)) 0.0978% | fluorescence, % of fluorescein control ([6]; at 91.3 µM (top of the series)) -0.0434% | fluorescence, % of fluorescein control ([6]; at 95.7 µM (top of the series)) 0.0234% | fluorescence, % of triamterene ([7]; at 91.3 µM (top of the series)) 0.0414% | fluorescence, % of triamterene ([7]; at 95.7 µM (top of the series)) 0.106% | fluorescence, % of fluorescein ([8]; at 91.3 µM (top of the series)) -0.0158% | fluorescence, % of fluorescein ([8]; at 95.7 µM (top of the series)) 0.0087% | fluorescence, % of fluorescent control ([9]; at 91.3 µM (top of the series)) 0.06% | fluorescence, % of fluorescent control ([9]; at 95.7 µM (top of the series)) -0.269%
